Target: human non-muscle myosin-IIA heavy meromyosin (HMM NMIIA) (human)

## recombinant human arginylated-β-actin (natural protein)
  actin-activated steady-state ATPase activity of NM myosin-II (free phosphate, spectrophotometric), stimulation relative to Ac-β-actin (% of Ac-β-actin): 40
